The data set deals with O=P(O)(O)O. The experiment in a line: purified protein. The conditions noted are these: phosphorolysis, co-substrate Sop3 varied, phosphate 0.5-5.0 mM, 100 mM MOPS-NaOH pH 7.5, 25 mM MgCl2, 30°C.

A word on the Km: it is the concentration of substrate that gives half-maximal velocity. By kcat is commonly meant the number of substrate molecules converted per active site and unit of time at saturation.

As for “Lin1839r (recombinant Lin1839 protein; 1,2-β-oligoglucan phosphorylase) (Listeria innocua Clip11262; T2A)”, the Km turned out to be 1300 ± 200 µM and the kcat was found to be 21 ± 1 s⁻¹.

(Values after PMC3960220, “1,2-β-Oligoglucan Phosphorylase from Listeria innocua” (PLoS ONE, 2014).)
